These results are taken from patent US20100120063A1, “GPCR Arrestin Assays” (DISCOVERX CORPORATION, priority 2008, published 2010).

For this experiment, the target named is OPRM1-PK (opiod receptor mu-1 fused to PK) (E. coli) (UniProt P35372). The experiment in a line: cell-based or functional assay.

Consider “arrestin-EA fusion protein (beta arrestin fused at its C terminus to the EA fragment of β-galactosidase) (from UniProt P49407 1-418; P00722 48-1024)”, for which the BOTTOM of the deltorphin dose-response fit, EFC chemiluminescence, U2OS cells with OPRM1-PK and OPRD1 came out at 614; the BOTTOM of the deltorphin dose-response fit, EFC chemiluminescence, U2OS cells with OPRM1-PK only was determined as 722; the TOP of the deltorphin dose-response fit, EFC chemiluminescence, U2OS cells with OPRM1-PK and OPRD1 is 5380; the TOP of the deltorphin dose-response fit, EFC chemiluminescence, U2OS cells with OPRM1-PK only worked out at 14400.
